The subject of this data set is apoptotic hepatocytes. Conditions: mouse, in vivo. Here is the method: Massive hepatic apoptosis can be induced within 1–2 hr in mice following intravenous injection of anti-Fas antibody (Ogasawara J. et al., 1993, Nature, 364, 806–809). […] Five-weeks-old male BALB/c mice were injected intravenously with 10 μg/animal of purified hamster anti-Fas mAb (Jo2, PharMingen, San Diego, Calif.) using the model described by Ogasawara et. al. (Nature, 1993, 364, 806–809). […] Injections were performed at different time intervals between 5 min–2 hr after antibody treatment. […] All animals were killed 2 hr after administration of antibody followed by organ removal. Heart, lung and liver were collected. Liver were sectioned transversely across the mid-portion of each lobe; organs were fixed in phosphate-buffered formalin for histological and immunohisto-chemical analyses.
Formalin fixed paraffin-embedded tissues were sectioned (5 μm) for staining with Hematoxylin/Eosin or other techniques. […]
Liver sections from different lobes were used for detection of stained apoptotic cells compared to normal cells. Using light microscopy (×400), twenty fields of stained cells were evaluated. […] The stained cell's score (%) corresponds to the mean of the values for the twenty evaluated fields. […]
To quantitate the microscopic examination of the pharmacokinetics studies, the number of stained cells from 20 microscopic fields was counted.

“Myristate-KVSFFCKNKEKKC-K (SEQ ID NO:1) (biotin) [NST513]”: the “apoptotic cells in liver sections of control animals injected with the compound alone” value is “No evidence of apoptotic cells” and the “time of peak staining of apoptotic cells in liver after injection” value is 60 min.

Source of the values: US7196063B1, “Peptides and pharmaceutical compositions comprising same” (NST NeuroSurvival Technologies Ltd., priority 1999, dated 2007).
